Our source for the Ki values is BindingDB's records for doi:10.1146/annurev.pa.30.040190.003221 (National Institute For Medical Research, 1990).

By UniProt entry, the sequences of proteins in these tests, tags left out. Where a name states a change or a piece, a line headed by the entry shows the natural chain unless it says otherwise.
UniProt P08482: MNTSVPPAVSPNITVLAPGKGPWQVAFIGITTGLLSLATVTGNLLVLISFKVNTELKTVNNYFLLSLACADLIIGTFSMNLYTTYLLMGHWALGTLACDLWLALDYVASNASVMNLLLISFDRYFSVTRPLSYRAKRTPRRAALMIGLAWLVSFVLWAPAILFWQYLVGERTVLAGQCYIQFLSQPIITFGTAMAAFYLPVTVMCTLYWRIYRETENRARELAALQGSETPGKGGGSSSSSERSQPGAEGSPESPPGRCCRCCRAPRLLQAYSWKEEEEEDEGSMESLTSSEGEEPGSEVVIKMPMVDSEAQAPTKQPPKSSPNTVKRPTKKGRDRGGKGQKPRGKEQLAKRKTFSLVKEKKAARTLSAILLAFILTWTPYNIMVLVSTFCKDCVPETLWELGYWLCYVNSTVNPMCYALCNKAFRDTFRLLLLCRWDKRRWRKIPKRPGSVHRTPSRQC

This experiment addresses Muscarinic acetylcholine receptor M1 (Rattus norvegicus, UniProt P08482).

With `COc1ccccc1CNCCCCCCNCCCCCCCCNCCCCCCNCc1ccccc1OC` [METHOCTRAMINE], affinity was put at a Ki of 79.4 nM.
